Values quoted from earlier work as cited in publication PMC11489250, “Optimized methods for measuring competitive binding of chemical substances to thyroid hormone distributor proteins transthyretin and thyroxine binding globulin” (Archives of Toxicology, 2024).

Target: T1, Human TTR (Homo sapiens, UniProt P02766)
T1 construct: Transthyretin (prealbumin, TTR) >95% from human plasma; purchased Sigma Aldrich (Zwijndrecht, The Netherlands); host or cells: human plasma
Design: method as in Hamers et al. [2020]
Details: FITC-T4 110 nM, human TTR 30 nM, 4 °C, 2 h; ref Hamers et al. [2020]; read-out: TTR literature Ki; cited from earlier work

Q: For `Oc1cc(Cl)ccc1Oc1ccc(Cl)cc1Cl` [Triclosan, triclosan], which Ki is on record?
A: 930 nM
